Data published in ChEMBL document CHEMBL1629420, “Structure-cytotoxicity relationship in a series of N-phosphorus substituted E,E-3,5-bis(3-pyridinylmethylene)- and E,E-3,5-bis(4-pyridinylmethylene)piperid-4-ones” (Eur J Med Chem, 2010).

Columns and labels:
[1] = tested on: A549; assay: Cytotoxicity against human A549 cells after 72 hrs by MTT assay; format: functional, cell-based
[2] = Cytotoxicity against human Caov3 cells after 72 hrs by MTT assay; format: functional, cell-based; conditions: caov-3
[3] = Cytotoxicity against human KB3-1 cells after 72 hrs by MTT assay; format: functional, cell-based; conditions: kb 3-1
[4] = Cytotoxicity against human multi drug resistant subclone KB 8.5 cells after 72 hrs by MTT assay

| Compound | IC50 [1] [µM] | IC50 [2] [µM] | IC50 [3] [µM] | IC50 [4] [µM] |
| --- | --- | --- | --- | --- |
| CCOP(C)(=O)N1C/C(=C\c2cccnc2)C(=O)/C(=C/c2cccnc2)C1 (configuration not stated) | 11.3 | 10.8 | 20.3 | 45.8 |
| CP(=O)(Oc1ccccc1)N1C/C(=C\c2cccnc2)C(=O)/C(=C/c2cccnc2)C1 (configuration not stated) | 7.5 | 9.3 | 7.8 | 7.6 |
| CP(=O)(Oc1ccccc1)N1C/C(=C\c2ccncc2)C(=O)/C(=C/c2ccncc2)C1 (configuration not stated) | 8.3 | 7 | 7.1 | 7.1 |
